From ChEMBL document CHEMBL3826965, “Synthesis and in vitro reactivation study of isonicotinamide derivatives of 2-(hydroxyimino)-N-(pyridin-3-yl)acetamide as reactivators of Sarin and VX inhibited human acetylcholinesterase (hAChE)” (2016)

Protein sequences, listed by entry. Tags and fused reporters are not part of them. Lines headed by an entry give the natural chain unless they say otherwise; changes in a name come on top.
UniProt P22303: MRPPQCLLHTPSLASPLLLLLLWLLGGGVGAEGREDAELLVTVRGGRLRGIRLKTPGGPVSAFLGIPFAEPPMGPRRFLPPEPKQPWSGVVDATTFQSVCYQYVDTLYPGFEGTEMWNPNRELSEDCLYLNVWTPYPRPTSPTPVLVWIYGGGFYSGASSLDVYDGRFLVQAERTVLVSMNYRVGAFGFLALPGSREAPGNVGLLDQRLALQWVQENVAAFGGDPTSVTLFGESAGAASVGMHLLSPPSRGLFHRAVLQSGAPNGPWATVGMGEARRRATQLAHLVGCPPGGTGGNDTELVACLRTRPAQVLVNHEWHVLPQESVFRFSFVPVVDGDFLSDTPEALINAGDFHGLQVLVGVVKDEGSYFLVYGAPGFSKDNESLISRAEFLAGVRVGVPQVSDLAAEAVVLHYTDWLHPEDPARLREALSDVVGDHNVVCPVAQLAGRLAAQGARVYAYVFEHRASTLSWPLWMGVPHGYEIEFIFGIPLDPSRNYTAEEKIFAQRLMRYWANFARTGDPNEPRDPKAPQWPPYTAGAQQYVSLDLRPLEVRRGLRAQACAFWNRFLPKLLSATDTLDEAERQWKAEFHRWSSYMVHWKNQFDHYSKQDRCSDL

Assays:
[1] = target: Acetylcholinesterase (Homo sapiens) (UniProt P22303); assay: Reactivation of VX-inhibited hemoglobin free erythrocyte ghost human AChE assessed as second order rate constant using acetylcholine iodide as substrate measured for 1 hr by spectrophotometry based Ellman method
[2] = target: Acetylcholinesterase (Homo sapiens) (UniProt P22303); assay: Reactivation of sarin-inhibited hemoglobin free erythrocyte ghost human AChE assessed as second order rate constant using acetylcholine iodide as substrate measured for 1 hr by spectrophotometry based Ellman method
[3] = target: Acetylcholinesterase (Homo sapiens) (UniProt P22303); assay: Reactivation of VX-inhibited hemoglobin free erythrocyte ghost human AChE assessed as rate constant for cleavage of P-O bond of VX-AChE conjugate using acetylcholine iodide as substrate measured for 1 hr by spectrophotometry based Ellman method
[4] = target: Acetylcholinesterase (Homo sapiens) (UniProt P22303); assay: Reactivation of sarin-inhibited hemoglobin free erythrocyte ghost human AChE assessed as rate constant for cleavage of P-O bond of sarin-AChE conjugate using acetylcholine iodide as substrate measured for 1 hr by spectrophotometry based Ellman method

| Structure (SMILES) | K [1] [mM⁻¹ min⁻¹] | K [2] [mM⁻¹ min⁻¹] | K [3] [min⁻¹] | K [4] [min⁻¹] |
| --- | --- | --- | --- | --- |
| NC(=O)c1cc[n+](CC[n+]2cccc(NC(=O)/C=N\O)c2)cc1 | 3.76 | 29.8 | 0.37 | 0.068 |
| NC(=O)c1cc[n+](CCCC[n+]2cccc(NC(=O)/C=N\O)c2)cc1 | 25.5 | 4.94 | 0.314 | 0.174 |
| NC(=O)c1cc[n+](CCC[n+]2cccc(NC(=O)/C=N\O)c2)cc1 | 8.89 | 23.9 | 0.494 | 0.156 |
| C[n+]1ccccc1C=NO |  | 2.33 |  |  |
| NC(=O)c1cc[n+](CCCCC[n+]2cccc(NC(=O)/C=N\O)c2)cc1 | 8.35 | 3.1 | 0.211 | 0.207 |
